Several values for one entry are separate records, joined by “and”; a condition that tells them apart may be missing. Identical values can stand only once. Bounds are passed on as bounds.

Chains of the proteins cited; added tags and fusions are not shown. Residues count along the entry.
UniProt P36544, 23-502 limits assumed: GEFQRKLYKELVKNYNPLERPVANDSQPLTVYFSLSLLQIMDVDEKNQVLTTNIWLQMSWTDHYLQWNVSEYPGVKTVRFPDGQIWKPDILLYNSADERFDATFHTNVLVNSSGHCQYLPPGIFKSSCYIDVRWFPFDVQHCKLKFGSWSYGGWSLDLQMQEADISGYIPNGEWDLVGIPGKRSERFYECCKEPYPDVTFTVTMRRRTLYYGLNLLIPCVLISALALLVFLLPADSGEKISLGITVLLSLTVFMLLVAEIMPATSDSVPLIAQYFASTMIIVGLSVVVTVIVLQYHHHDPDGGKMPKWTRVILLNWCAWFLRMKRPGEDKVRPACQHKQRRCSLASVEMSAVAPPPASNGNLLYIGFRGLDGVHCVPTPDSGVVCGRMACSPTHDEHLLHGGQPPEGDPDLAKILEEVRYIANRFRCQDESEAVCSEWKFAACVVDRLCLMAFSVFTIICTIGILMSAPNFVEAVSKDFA

This assay concerns the target Neuronal acetylcholine receptor subunit alpha-7 (Homo sapiens, UniProt P36544).
For the molecule `Cc1ccc2cc(C(=O)N[C@@H]3C4CCN(CC4)C3(C)C)sc2c1C1CC1`, the Ki (commonly the dissociation constant of the complex between target and ligand, obtained from inhibition or displacement) is 380 nM.
As for `COCc1cccc2cc(C(=O)N[C@@H]3C4CCN(CC4)C34CC4)sc12`, the Ki came out at 420 nM. This Ki and that of the molecule before are within 1.5-fold of each other.
`O=C(N[C@@H]1C2CCN(CC2)C12CC2)c1cc2ccc(Cl)c(F)c2s1`: the inhibition constant Ki was found to be 240 nM. Compared with the last molecule, the Ki is about 1.8-fold lower.
`COc1c(Cl)ccc2cc(C(=O)N[C@@H]3C4CCN(CC4)C3(C)C)sc12` registered an inhibition constant Ki of 550 nM.
As for `O=C(N[C@@H]1C2CCN(CC2)C12CC2)c1cc2cc(F)c(Cl)c(F)c2s1`, affinity was put at a Ki of 310 nM.
With `O=C(N[C@@H]1C2CCN(CC2)C12CC2)c1cc2cccc(OC(F)(F)F)c2s1` the figure was 280 nM; with `CC(C)c1cccc2cc(C(=O)N[C@@H]3C4CCN(CC4)C3(C)C)sc12`, 500 nM.
With `COc1ccc2cc(C(=O)N[C@@H]3C4CCN(CC4)C3(C)C)sc2c1F` the figure was 1700 nM.
As for `O=C(N[C@@H]1C2CCN(CC2)C12CC2)c1cc2cccc(N3CCOCC3)c2s1`, the figure is 1100 nM; as for `COc1cccc2cc(C(=O)N[C@@H]3C4CCN(CC4)C34CC4)sc12`, 58 nM; as for `O=C(N[C@@H]1C2CCN(CC2)C12CC2)c1cc2cccc(-c3nccs3)c2s1`, 147 nM.
On to `CC1(C)[C@H](NC(=O)c2ccc3oc(C4CC4)cc3c2)C2CCN1CC2`, for which the Ki is 2200 nM.
Take `COc1c(C)ccc2cc(C(=O)N[C@@H]3C4CCN(CC4)C34CC4)sc12`: the Ki is 300 nM.
As for `CC1(C)[C@H](NC(=O)c2cc3ccc(C4CC4)c(Cl)c3s2)C2CCN1CC2`, the figure is 2500 nM.
`O=C(N[C@@H]1C2CCN(CC2)C12CC2)c1cc2cccc(C3CCOCC3)c2s1` had a Ki of 1200 nM.
With `O=C(N[C@@H]1C2CCN(CC2)C12CC2)c1ccc2occc2c1`, the Ki came to 400 nM. This Ki is about 3-fold lower than that of the molecule before.
`Cc1ccc2cc(C(=O)N[C@@H]3C4CCN(CC4)C34CC4)sc2c1C#N` registered a Ki of 190 nM.
Molecule `Cc1coc2ccc(C(=O)N[C@@H]3C4CCN(CC4)C34CC4)cc12` yielded a Ki of 420 nM.
In turn, `COc1cccc2cc(C(=O)N[C@@H]3C4CCN(CC4)C3(C)C)sc12` had an inhibitory constant (Ki) of 310 nM. The Ki values of the last two molecules are within 1.5-fold of each other.
With `CC1(C)[C@H](NC(=O)c2nc3ccccc3o2)C2CCN1CC2` the figure was 2700 nM; with `Cc1ccc2cc(C(=O)N[C@@H]3C4CCN(CC4)C3(C)C)sc2c1C#N`, 640 nM.
As for `Cn1ccc2ccc(C(=O)N[C@@H]3C4CCN(CC4)C3(C)C)cc21`, the figure is 2000 nM; as for `O=C(N[C@@H]1C2CCN(CC2)C12CC2)c1ccc2occc2n1`, 20000 nM; as for `Cn1c(C(=O)N[C@@H]2C3CCN(CC3)C23CC3)cc2ccccc21`, 2200 nM.
As for `COc1ccc2cc(C(=O)N[C@@H]3C4CCN(CC4)C34CC4)sc2c1F`, the figure is 780 nM.
`O=C(N[C@H]1C2CCN(CC2)C12CC2)c1n[nH]c2ccccc12` yielded a Ki of 14000 nM. Compared with the last molecule, the Ki is about 18-fold higher.
As for `CC1(C)[C@H](NC(=O)c2cc3cccc(N4CCOCC4)c3s2)C2CCN1CC2`, the figure is 3500 nM.
Molecule `O=C(N[C@@H]1C2CCN(CC2)C12CC2)c1cc2ccc(Cl)c(C(F)(F)F)c2s1` displayed a Ki of 310 nM.
As for `COc1c(C2CC2)ccc2cc(C(=O)N[C@@H]3C4CCN(CC4)C3(C)C)sc12`, the figure is 6500 nM; as for `Cc1ccc2cc(C(=O)N[C@@H]3C4CCN(CC4)C34CC4)sc2c1Cl`, 160 nM; as for `Cc1cc2cc(C(=O)N[C@@H]3C4CCN(CC4)C34CC4)ccc2o1`, 490 nM.
With `COc1ccc2cc(C(=O)N[C@@H]3C4CCN(CC4)C3(C)C)sc2c1Cl` the figure was 1200 nM.
As for `CS(=O)(=O)c1cccc2cc(C(=O)N[C@@H]3C4CCN(CC4)C34CC4)sc12`, the figure is 2300 nM; as for `O=C(NC1C2CCN(CC2)C12CC2)c1cc2cc(Cl)c(Cl)cc2s1` (single isomer, unassigned), > 30000 nM and 14000 nM.
Molecule `CC1(C)[C@H](NC(=O)c2cc3cnc(N)nc3s2)C2CCN1CC2` came in with a Ki of 1600 nM.
With `CC1(C)[C@H](NC(=O)c2cc3cccc(S(C)(=O)=O)c3s2)C2CCN1CC2` the figure was 5900 nM.

Source of the values: ChEMBL document CHEMBL5726183, “Geminal substituted quinuclidine amide compounds as agonists of α-7 nicotonic acetylcholine receptors” (2019).
